The numbers were not newly measured in US10627374B2, “LC-MS configuration for purification and detection of analytes having a broad range of hydrophobicites” (COHESIVE TECHNOLOGIES INC., priority 2010, dated 2020), which cites them from elsewhere.

The logP is a log measure of how a compound divides between an organic and an aqueous phase.

Read-outs that look alike come from different tables or passages of the source. Some compounds may have been tested in ways that are not shown here.

As for Norfentanyl, the logP was 3.94 (Table 1) and 3.94 (Table 2).
